The values below are quoted from earlier work in US20120196828A1, “SENSITIZATION OF CANCER CELLS TO TREATMENT” (priority 2011, published 2012).

For the data set the following is noted: See U.S. Pat. No. 7,468,358; cited from earlier work.

As for 2-O, 3-O desulfated heparin [ODSH], the “Induction of heparin-induced thrombocytopenia (HIT)” value is on record as “does not induce”.
